Source: paper PMC3224645 (Purinergic Signalling, 2011)

Chains of the proteins cited; added tags and fusions are not shown.
UniProt P0DMS8, whole entry: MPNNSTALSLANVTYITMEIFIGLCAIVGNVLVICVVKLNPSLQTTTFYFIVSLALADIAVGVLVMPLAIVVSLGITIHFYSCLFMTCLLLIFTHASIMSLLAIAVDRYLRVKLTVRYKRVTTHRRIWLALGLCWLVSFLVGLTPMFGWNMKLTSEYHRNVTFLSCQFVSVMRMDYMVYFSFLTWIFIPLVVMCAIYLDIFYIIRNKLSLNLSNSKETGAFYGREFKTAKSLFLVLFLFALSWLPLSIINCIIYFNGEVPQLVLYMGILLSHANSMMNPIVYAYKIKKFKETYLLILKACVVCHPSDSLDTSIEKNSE

Biological target: hA3R (Homo sapiens, UniProt P0DMS8)
Experiment: cAMP accumulation assay
Format: cell-based

CNC(=O)[C@H]1O[C@@H](n2cnc3c(NCc4cccc(I)c4)nc(Cl)nc32)[C@H](O)[C@@H]1O [Cl-IB-MECA, 2-chloro-N ^6-(3-iodobenzyl)adenosine-5′-N-methylcarboxamide]
effect of ADA on the agonist's inhibition of cAMP production (agonist 10 μM + ADA 0.8 IU/ml): insensitive to the enzyme
inhibition of forskolin-stimulated cAMP production (agonist at 10 μM): more potent effect
